Only some compounds are listed: those with a hit (about 1.7% of all), similar ones and a draw of the others.
CDK5 inh: CDK5/p35 (human) kinase inhibition; inhibition, % at 10 µM; 0.01% of 330,000 active; Recombinant CDK5/p35, ADP-Glo luminescence, 60 min; AID 488839; Q00535+Q15078;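 active means highest replicate inhibition of at least 50% and at least 75% of replicates reaching 50%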
CAL PDZ FP-1: inhibitors of human CAL PDZ peptide binding. Q9HD26. inhibition, % at 24.9 µM. 0.92% of 300,000 active. purified CAL PDZ, TMR-peptide fluorescence polarization, 1 h;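 active means mean inhibition of at least 30% with at least half of replicates also reaching 30%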
CAL PDZ FP-2: human CAL PDZ-peptide interaction inhibition. 0.02% of 330,000 active. inhibition, % at 20 µM. purified CAL PDZ, TMR-peptide fluorescence polarization, 1 h;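 active means highest replicate inhibition of at least 40%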
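Material: tagged CAL PDZ protein CerCALP, purified; buffer or medium: sodium phosphate/NaCl buffer pH 7.4 with TCEP, IgG, Thesit; also added: fluorescent TMR peptide probe; schedule: 1 h incubation at room temperature before polarization reading; technique: fluorescence polarization from S- and P-plane intensities, G-factor corrected; control set: unlabelled peptide and DMSO controls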
dFosB activator: activators of mouse delta FosB homodimer. purified delta FosB, TAMRA-CDK5 oligo fluorescence polarization; percent of positive-control signal above neutral wells. activation, % at 25 µM. 0.99% of 340,000 active. AID 493131;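 active means mean activation above about 17%, with every replicate also reaching it, limit read from the data, passing the limit was not always enough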
Dyrk1A ADPGlo: inhibitors of rat Dyrk1A kinase. Q63470. ADP-Glo luminescence, NFATc1 peptide. inhibition, % at 12.5 µM. 0.43% of 310,000 active. AID 504441; in the data active means inhibition above about 50%
UUG fidelity: modulators of yeast start codon fidelity, primary screen, whole organism, S. cerevisiae, single point, plate reader | AID 602363, 2012 | S. cerevisiae UUG-firefly luciferase reporter, luminescence/redox ratio | activity score, % at 18.7 µM | hit rate 0.13% among 350,000;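 active = replicate mean at a twofold rise or more, about +100% in these data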;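 also: firefly luciferase made from a UUG start codon reports start codon fidelity; reporter light over untreated wells divided by growth signal over untreated wells; some hits fall short of that in this replicate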
Numbers stand for hits; – = inactive; · = no result.

SMILES	CDK5 inh	CAL PDZ FP-1	CAL PDZ FP-2	dFosB activator	Dyrk1A ADPGlo	UUG fidelity
COc1ccc(Nc2ncc(C(=O)N3CCC4(CC3)OCCO4)c3ccccc23)cc1	–	80	–	–	–	–
O=C(Cc1cccnc1)N1CCCCN2[C@@H](CO)[C@@H](c3ccc(C#CC4CC4)cc3)[C@@H]2C1	·	·	·	·	·	–
COc1cc2c(ccc3c4cc(OC)c(OC)cc4c[n+](C)c23)cc1O	–	–	–	33	–	·
O=[N+]([O-])c1ccc2c(c1)C(c1ccccc1)=NCCN2	–	33	–	–	–	–
CCC1CN2CCc3cc(OC)c(OC)cc3C2CC1CC1NCCc2c1[nH]c1ccc(O)cc21 (stereo not given)	–	–	–	29	–	·
COc1ccc2c(c1OC)CN1CCc3cc4c(cc3[C@H]1C2)OCO4	–	–	–	–	–	–
O=C(Cc1cccnc1)N1CCCCN2[C@H](CO)[C@@H](c3ccc(/C=C/c4ccccc4)cc3)[C@@H]2C1	·	·	·	·	·	–
C=CCn1c(O)c(C(C)=Nc2ccc(C(=O)O)cc2)c(=O)[nH]c1=O	–	82	–	–	–	–
C=CCn1c(O)c(C(CC)=Nc2ccc(C(=O)O)cc2)c(=O)[nH]c1=O	–	–	–	–	–	·
O=c1[nH]c2ccccc2n1C1CCN(CCCC(c2ccc(F)cc2)c2ccc(F)cc2)CC1	–	–	–	28	–	–
O=C1CC(N2CCC(n3c(=O)[nH]c4ccccc43)CC2)C(=O)N1c1ccc(F)cc1 (stereo not given)	–	–	–	–	–	–
N#Cc1cccc(-c2ccc([C@H]3[C@H]4CN(C(=O)Cc5ccncc5)CCCCN4[C@H]3CO)cc2)c1	·	·	·	·	·	–
COc1cc(/C=C2\C(=O)NC(=O)N(c3ccccc3)C2=O)c([N+](=O)[O-])cc1OC	–	–	46	–	–	–
COc1cc(/C=C2\C(=O)NC(=O)N(c3ccccc3)C2=O)cc(OC)c1O	–	·	–	–	–	–
CN1CCN(c2ccc(N)cc2Cl)CC1	–	–	–	33	–	·
Cc1ccc2c(C)c3ccc4ccccc4c3c[n+]2c1	–	38	–	–	–	·
C/C(CC(c1ccccc1)c1c(O)c2ccccc2oc1=O)=N\Nc1ccc([N+](=O)[O-])cc1[N+](=O)[O-] (stereo not given)	–	–	–	–	–	–
CC/C(CC(c1ccccc1)c1c(O)c2ccccc2oc1=O)=N\NC(N)=S (stereo not given)	–	65	–	–	–	·
CCOC(=O)C1(c2ccccc2)CCN(CCC(=O)Nc2cccc(Br)c2)CC1	–	·	–	18	–	–
N#Cc1cccc(-c2ccc([C@@H]3[C@@H](CO)N4CCCCN(C(=O)Cc5ccccc5)C[C@H]34)cc2)c1	·	·	·	·	·	–
O=C(Cc1ccccc1)N1CCCCN2[C@@H](CO)[C@H](c3ccc(C#CC4(O)CCCC4)cc3)[C@@H]2C1	·	·	·	·	·	–
CN1CC(C(=O)c2cccc(C(F)(F)F)c2)C(c2ccc(Cl)cc2)C1 (stereo not given)	–	59	–	–	–	–
O=C(Cc1ccncc1)N1CCCCN2[C@H](CO)[C@H](c3ccc(C#Cc4ccccc4F)cc3)[C@H]2C1	·	·	·	·	·	–
CCCCOC(=O)c1ccccc1C(=O)OCCCC	–	42	–	–	·	–
COc1ccc(C#Cc2ccc([C@H]3[C@H](CO)N4CCCCN(C(=O)Cc5ccncc5)C[C@@H]34)cc2)cc1	·	·	·	·	·	–
SMILES	CDK5 inh	CAL PDZ FP-1	CAL PDZ FP-2	dFosB activator	Dyrk1A ADPGlo	UUG fidelity
CCOC(=O)c1c(/N=C/c2c(O)n(-c3ccccc3F)c(=S)[nH]c2=O)sc2c1CCCC2	–	–	–	23	–	–
CCOC(=O)c1c(/N=C/c2c(O)n(-c3ccc(F)cc3)c(=S)[nH]c2=O)sc2c1CCCC2	–	·	–	–	–	·
O=[N+]([O-])c1ccc(Nc2ccccc2)cc1	–	–	–	–	–	·
CC(Cc1ccccc1)NC(=O)Cc1ccc([N+](=O)[O-])cc1 (stereo not given)	–	30	–	–	–	–
CCn1c(O)c(C=Nc2ccc(S(N)(=O)=O)cc2)c(=O)n(CC)c1=S	–	–	–	19	–	·
CCn1c(O)c(C=Nc2ccc(S(N)(=O)=O)cc2)c(=O)[nH]c1=S	–	–	–	20	–	·
N#Cc1cccc(-c2ccc([C@H]3[C@H]4CN(C(=O)Cc5ccccc5)CCCCN4[C@H]3CO)cc2)c1	·	·	·	·	·	–
O=C(O)[C@@H]1[C@@H](CO)[C@@H]2Cn3c(ccc(C4=CCCC4)c3=O)[C@H]1N2C(=O)Cc1ccccn1	·	·	·	·	·	–
CCOC(=O)[C@@H]1[C@@H]2NC(=S)N(C)[C@@]1(COCc1ccc(OC)cc1)Oc1ccccc12	·	·	·	·	·	–
CCOP(=O)(OCC)C(O)c1ccc(Br)cc1 (stereo not given)	·	–	–	–	–	·
CCOP(=O)(OCC)C(O)c1ccc(N(C)C)cc1 (stereo not given)	–	30	–	–	–	·
COC(=O)[C@H]1[C@H](CO)[C@H]2Cn3c(ccc(-c4ccccc4)c3=O)[C@@H]1N2CCc1ccccc1	·	·	·	·	·	–
O=c1[nH]c(=O)n(-c2ccc(Br)cc2)c(O)c1C=NC(CO)(CO)CO	·	·	·	·	·	–
N=Cc1c(O)n(-c2ccc(C34CC5CC(CC(C5)C3)C4)cc2)c(=O)[nH]c1=O	–	–	–	46	–	·
COC(=O)[C@H]1[C@H](CO)[C@H]2Cn3c(ccc(-c4ccccc4)c3=O)[C@@H]1N2C(=O)c1ccccc1F	·	·	·	·	·	–
C1CCC2S[C@H]3CCCCC3NC2C1 (stereo not given in full)	–	58	–	–	–	–
Cc1cc(OC(C)C(=O)NCc2ccncc2)c2c3c(c(=O)oc2c1)CCC3 (stereo not given)	–	31	–	–	–	–
O=C(Cc1ccccn1)N1CCCCN2[C@H](CO)[C@@H](c3ccc(C#Cc4ccccc4)cc3)[C@@H]2C1	·	·	·	·	·	–
O=C(O)[C@H]1[C@H](CO)[C@H]2Cn3c(ccc(C4=CCCC4)c3=O)[C@@H]1N2C(=O)Cc1ccccn1	·	·	·	·	·	–
CCn1nc(-c2ccccc2)nc2c(=O)n(C)c(=O)nc1-2	–	–	–	–	68	·
CCC1CN1P(=S)(N1CC1CC)N1CC1CC (stereo not given)	–	–	–	–	–	–
CCC1CN1P(=O)(c1ccccc1)N1CC1CC (stereo not given)	–	113	–	–	–	–
CCn1c(O)c(C=NCc2cccs2)c(=O)[nH]c1=O	–	51	–	–	–	–
CCN(CCCl)c1cc(CN(C)C)cc(NC(=O)c2ccc(C(=O)Nc3cc(CN(C)C)cc(N(CC)CCCl)c3)cc2)c1	–	–	–	38	–	·
CCN(CC)C(=O)c1ccc(NC(=O)c2cccc(C(F)(F)F)c2)cc1	–	·	–	–	–	–
O=C(Cc1cccnc1)N1CCCCN2[C@H](CO)[C@@H](c3ccc(C#CC4CC4)cc3)[C@H]2C1	·	·	·	·	·	–

Assay outcomes as filed in PubChem.
